Measurements published in patent US20210030801A1, “METHOD FOR PREPARING CHIMERIC ANTIGEN RECEPTOR (CAR)-CARRYING EXOSOMES DERIVED FROM IMMUNE CELLS, AND USE OF CAR-CARRYING EXOSOMES” (PHARCHOICE THERAPEUTICS INC, priority 2017, published 2021).

System: MDA-MB-231 cells
Experiment: CellTiter-Glo cell viability, MDA-MB-231
Assay type: cell-based
Details: EGF 5 nmol, exosomes at concentration gradient, 4 days; P<0.01, Tukey test
Experimental: MDA-MB-231 and HCC827 cells (ATCC) at well growth state were taken and diluted to a concentration of 5×10^3/ml, then inoculated in a 96-well cell culture plate at 200 μl/well, and cultivated in an incubator at 37° C. and 5% CO2 for 24 h. Then EGF with a final concentration of 5 nmol and exosomes with a concentration gradient were added to the culture, and the cetuximab antibody (purchased from Merck) was adopted as a control. Four days later, the cell viability was determined with CellTiter-Glo Luminescent Cell Viability Assay kit (Promega, Madison, Wis.).

Substance: cetuximab
- inhibition of viability of MDA-MB-231 cells: naturally resistant
